Reference: US20240108738A1, “BICYCLIC PEPTIDE LIGANDS SPECIFIC FOR NK CELLS” (Bicycle Tx Limited, priority 2021, published 2024)

Columns and labels:
Format in all cases: binding
[1] = molecular target: T1, CD16a/FCgRIIIa (F158 variant) (Homo sapiens, UniProt P08637); test: CD16a/FCgRIIIa HTRF assay (IgG competition on HEK293 cells)
T1 construct: host or cells: HEK293

Fc-tagged human NKp46 = molecular target: T2, Fc-tagged human NKp46 (Homo sapiens, UniProt O76036); test: NKp46 SPR assay (Method 1 and/or Method 2); conditions: Kd (nM), SPR Method 1 and/or Method 2, Table 3B
T2 construct: purchased ACROBiosystems NC1-H5257
Procedure: SPR experiments were performed to determine ka (M^−1s^−1), kd (s^−1), KD (nM) values (where measurable) of various bicyclic peptides to immobilised NKp46.
For analysis of peptide binding to NKp46, a Biacore 3000 instrument was used with a Cytiva Streptavidin chip. Capture of the protein (recombinant human NKp46-Fc fusion biotinylated via Avi-tag) was carried out at 25° C. with HBS-N (10 mM HEPES, 0.15 M NaCl, pH 7.4) as the running buffer and biotinylated NKp46 was captured to a level of 400-800 RU using a dilution of protein to 0.2 μM in buffer. Buffer was then changed to PBS/0.05% Tween 20 and a dilution series of the peptides was prepared in this buffer with a final DMSO concentration of 0.5% with a top peptide concentration of 100 nM-5000 nM and 6 further 2 or 3-fold dilutions. The SPR analysis was run at 25° C. and a flow rate of 50 μl/min with 60 seconds association and 200-400 seconds dissociation time. Data were corrected for DMSO excluded volume effects. All data were double-referenced for blank injections and reference surface using standard processing procedures and data processing and kinetic fitting were performed using Scrubber software, version 2.0c (BioLogic Software). Data were fitted using simple 1:1 binding model allowing for mass transport effects where appropriate.
Peptides were tested against Fc-tagged human NKp46 (ACROBiosystems, cat no. NC1-H5257). […]

CD16a (V Variant) = CD16a (V Variant) (Homo sapiens, UniProt P08637, F176V); test: FcγRIII (CD16a) SPR (Method A and/or Method B), V variant
CD16a (F Variant) = CD16a (F Variant) (Homo sapiens, UniProt P08637); test: FcγRIII (CD16a) SPR (Method A and/or Method B), F variant

Row | Structure (SMILES) | IC50 [1] [µM] | Kd (Fc-tagged human NKp46) [nM] | Kd (CD16a (V Variant)) [µM] | Kd (CD16a (F Variant)) [µM]
1 | CC(C)[C@@H]1NC(=O)[C@H](CO)NC(=O)[C@H](Cc2c[nH]c3ccccc23)NC(=O)[C@H](CCCNC(=N)N)NC(=O)[C@@H](NC(=O)[C@H](C)N)CSCc2nc3nc(n2)CSC[C@H](NC(=O)[C@@H]2CCCN2C(=O)[C@H](CC(=O)O)NC(=O)[C@H](CCC(=O)O)NC1=O)C(=O)NCC(=O)N[C@@H](C)C(=O)N[C@@H](Cc1c[nH]c2ccccc12)C(=O)N[C@H](C(=O)N[C@@H](C)C(N)=O)CSC3 [BCY14950, A-(SEQ ID NO: 61)-A] | 2.03 ± 0.635 | – | – | –
2 | CC[C@H](C)[C@@H]1NC(=O)[C@H](CCC(=O)O)NC(=O)[C@@H]2CCCN2C(=O)[C@H](Cc2c[nH]cn2)NC(=O)[C@H](CO)NC(=O)[C@H](CC(N)=O)NC(=O)[C@@H]2CCCN2C(=O)[C@@H]2CSCCC(=O)N3CN(CN(C3)C(=O)CCSC[C@@H](C(=O)N[C@@H](C)C(N)=O)NC1=O)C(=O)CCSC[C@H](NC(=O)[C@H](C)N)C(=O)N[C@@H](CC(C)C)C(=O)N[C@@H](CC(C)C)C(=O)N[C@@H](Cc1c[nH]cn1)C(=O)N[C@@H](CC(=O)O)C(=O)N[C@@H](Cc1c[nH]cn1)C(=O)N2 [BCY15105, A-(SEQ ID NO: 7)-A] | – | 3730 | – | –
3 | CC(C)[C@@H]1NC(=O)[C@H](CO)NC(=O)[C@H](Cc2c[nH]c3ccccc23)NC(=O)[C@H](CCCNC(=N)N)NC(=O)[C@@H](NC(=O)[C@H](C)N)CSCc2nc3nc(n2)CSC[C@H](NC(=O)[C@@H]2CCCN2C(=O)[C@H](CC(C(=O)O)C(=O)O)NC(=O)[C@H](CCC(=O)O)NC1=O)C(=O)NCC(=O)N[C@@H](C)C(=O)N[C@@H](Cc1c[nH]c2ccccc12)C(=O)N[C@H](C(=O)N[C@@H](C)C(N)=O)CSC3 [BCY16608, A-(SEQ ID NO: 179)-A] | 1.8 | – | – | –
4 | C[C@H](N)C(=O)N[C@H]1CSCc2nc3nc(n2)CSC[C@H](NC(=O)[C@@H]2CCCN2C(=O)[C@H](CC(=O)O)NC(=O)[C@H](CC(=O)O)NC(=O)[C@@H]2CCCN2C(=O)[C@H](Cc2ccc(O)cc2)NC(=O)[C@H](Cc2c[nH]c4ccccc24)NC(=O)[C@H](CCCNC(=N)N)NC1=O)C(=O)NCC(=O)N[C@@H](C)C(=O)N[C@@H](Cc1c[nH]c2ccccc12)C(=O)N[C@H](C(=O)N[C@@H](C)C(N)=O)CSC3 [BCY19033, A-(SEQ ID NO: 182)-A] | 1.42 | – | 0.421 ± 0.133 | –
5 | CC(C)[C@@H]1NC(=O)[C@H](Cc2c[nH]cn2)NC(=O)[C@H](Cc2c[nH]c3ccccc23)NC(=O)[C@H](CC(N)=O)NC(=O)[C@@H](NC(=O)[C@H](C)N)CSCc2nc3nc(n2)CSC[C@H](NC(=O)[C@@H]2CCCN2C(=O)[C@H](CCC(=O)O)NC(=O)[C@H](Cc2ccc(O)cc2)NC1=O)C(=O)NCC(=O)N[C@@H](C)C(=O)N[C@@H](Cc1c[nH]c2ccccc12)C(=O)N[C@H](C(=O)N[C@@H](C)C(N)=O)CSC3 [BCY19035, A-(SEQ ID NO: 184)-A] | 2.01 | – | 1.11 | 4
6 | CC(C)[C@@H]1NC(=O)[C@H](Cc2c[nH]cn2)NC(=O)[C@H](Cc2c[nH]c3ccccc23)NC(=O)[C@H](CC(N)=O)NC(=O)[C@@H](NC(=O)[C@H](C)N)CSCc2nc3nc(n2)CSC[C@H](NC(=O)[C@@H]2CCCN2C(=O)[C@H](CCC(=O)O)NC(=O)[C@H](Cc2ccc(O)cc2)NC1=O)C(=O)NCC(=O)N[C@@H](C)C(=O)N[C@@H](Cc1c[nH]c2ccccc12)C(=O)N[C@H](C(=O)N[C@@H](C)C(=O)NCC(=O)N[C@@H](C)C(=O)N[C@@H](C)C(=O)N[C@@H](C)C(=O)N[C@@H](CCC(=O)O)C(N)=O)CSC3 [BCY19042, A-(SEQ ID NO: 190)-AGAAAE] | – | – | 1.37 | 4.27
7 | C[C@H](N)C(=O)N[C@H]1CSCc2nc3nc(n2)CSC[C@H](NC(=O)[C@@H]2CCCN2C(=O)[C@H](CCC(=O)O)NC(=O)[C@H](CO)NC(=O)[C@H](Cc2ccccc2)NC(=O)[C@H](Cc2ccc(O)cc2)NC(=O)[C@H](Cc2c[nH]c4ccccc24)NC(=O)[C@H](CCCNC(=N)N)NC1=O)C(=O)NCC(=O)N[C@@H](C)C(=O)N[C@@H](Cc1c[nH]c2ccccc12)C(=O)N[C@H](C(=O)N[C@@H](C)C(N)=O)CSC3 [BCY20364, A-(SEQ ID NO: 210)-A] | – | – | 1.37 | 4.15
8 | C[C@H](N)C(=O)N[C@H]1CSCc2nc3nc(n2)CSC[C@H](NC(=O)[C@@H]2CCCN2C(=O)[C@H](CCC(=O)O)NC(=O)[C@H](CO)NC(=O)[C@H](Cc2ccccc2)NC(=O)[C@H](CO)NC(=O)[C@H](Cc2c[nH]c4ccccc24)NC(=O)[C@H](CCCNC(=N)N)NC1=O)C(=O)NCC(=O)N[C@@H](C)C(=O)N[C@@H](Cc1c[nH]c2ccccc12)C(=O)N[C@H](C(=O)N[C@@H](C)C(N)=O)CSC3 [BCY20365, A-(SEQ ID NO: 211)-A] | – | – | 3.49 | 6.79
9 | C[C@H](N)C(=O)N[C@H]1CSCc2nc3nc(n2)CSC[C@H](NC(=O)[C@@H]2CCCN2C(=O)[C@H](CCC(=O)O)NC(=O)[C@H](CO)NC(=O)[C@@H]2CCCN2C(=O)[C@H](Cc2ccc(O)cc2)NC(=O)[C@H](Cc2c[nH]c4ccccc24)NC(=O)[C@H](CCCNC(=N)N)NC1=O)C(=O)NCC(=O)N[C@@H](C)C(=O)N[C@@H](Cc1c[nH]c2ccccc12)C(=O)N[C@H](C(=O)N[C@@H](C)C(N)=O)CSC3 [BCY20367, A-(SEQ ID NO: 213)-A] | – | – | 0.473 | 1.67
10 | C[C@H](N)C(=O)N[C@H]1CSCc2nc3nc(n2)CSC[C@H](NC(=O)[C@@H]2CCCN2C(=O)[C@H](CCC(=O)O)NC(=O)[C@H](CC(=O)O)NC(=O)[C@@H]2CCCN2C(=O)[C@H](Cc2c[nH]cn2)NC(=O)[C@H](Cc2c[nH]c4ccccc24)NC(=O)[C@H](CCCNC(=N)N)NC1=O)C(=O)NCC(=O)N[C@@H](C)C(=O)N[C@@H](Cc1c[nH]c2ccccc12)C(=O)N[C@H](C(=O)N[C@@H](C)C(N)=O)CSC3 [BCY20368, A-(SEQ ID NO: 214)-A] | – | – | 0.531 | 1.43
11 | C[C@H](N)C(=O)N[C@H]1CSCc2nc3nc(n2)CSC[C@H](NC(=O)[C@@H]2CCCN2C(=O)[C@H](CCC(=O)O)NC(=O)[C@H](CC(=O)O)NC(=O)[C@H](Cc2ccccc2)NC(=O)[C@H](Cc2c[nH]cn2)NC(=O)[C@H](Cc2c[nH]c4ccccc24)NC(=O)[C@H](CCCNC(=N)N)NC1=O)C(=O)NCC(=O)N[C@@H](C)C(=O)N[C@@H](Cc1c[nH]c2ccccc12)C(=O)N[C@H](C(=O)N[C@@H](C)C(N)=O)CSC3 [BCY20370, A-(SEQ ID NO: 216)-A] | – | – | 0.639 | 1.27
12 | C[C@H](N)C(=O)N[C@H]1CSCc2nc3nc(n2)CSC[C@H](NC(=O)[C@@H]2CCCN2C(=O)[C@H](CC(=O)O)NC(=O)[C@H](CC(=O)O)NC(=O)[C@H](Cc2ccccc2)NC(=O)[C@H](Cc2c[nH]cn2)NC(=O)[C@H](Cc2c[nH]c4ccccc24)NC(=O)[C@H](CCCNC(=N)N)NC1=O)C(=O)NCC(=O)N[C@@H](C)C(=O)N[C@@H](Cc1c[nH]c2ccccc12)C(=O)N[C@H](C(=O)N[C@@H](C)C(N)=O)CSC3 [BCY20371, A-(SEQ ID NO: 217)-A] | – | – | 1.8 | 2.15
13 | C[C@H](N)C(=O)N[C@H]1CSCc2nc3nc(n2)CSC[C@H](NC(=O)[C@@H]2CCCN2C(=O)[C@H](CCC(=O)O)NC(=O)[C@H](CC(=O)O)NC(=O)[C@H](Cc2ccccc2)NC(=O)[C@H](Cc2ccc(O)cc2)NC(=O)[C@H](Cc2c[nH]c4ccccc24)NC(=O)[C@H](CCCNC(=N)N)NC1=O)C(=O)NCC(=O)N[C@@H](C)C(=O)N[C@@H](Cc1c[nH]c2ccccc12)C(=O)N[C@H](C(=O)N[C@@H](C)C(N)=O)CSC3 [BCY20372, A-(SEQ ID NO: 218)-A] | – | – | 0.869 | 2.41
14 | C[C@H](N)C(=O)N[C@H]1CSCc2nc3nc(n2)CSC[C@H](NC(=O)[C@@H]2CCN2C(=O)[C@H](CCC(=O)O)NC(=O)[C@H](CO)NC(=O)[C@H](CCc2ccccc2)NC(=O)[C@H](Cc2c[nH]cn2)NC(=O)[C@H](Cc2c[nH]c4ccccc24)NC(=O)[C@H](CCCNC(=N)N)NC1=O)C(=O)NCC(=O)N[C@@H](C)C(=O)N[C@@H](Cc1c[nH]c2ccccc12)C(=O)N[C@H](C(=O)N[C@@H](C)C(N)=O)CSC3 [BCY21689, A-(SEQ ID NO: 268)-A] | 1.24 | – | – | –
